In experiment [1] the target is Cannabinoid receptor 1 (Homo sapiens, UniProt P21554). As to the kind of experiment: biochemical.
Experiment [2] has as its target Cannabinoid receptor 2 (Homo sapiens, UniProt P34972). The experiment can be described thus: Displacement of [3H]-CP55940 from human CB2 receptor transfected in HEK293EBNA cell membranes after 90 mins by liquid scintillation counting analysis. Also on record: species or system HEK293-EBNA. In short, it runs like this:
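Human CB2-transfected HEK293EBNA membranes (about 0.18 mg/mL protein) in Tris-HCl with EDTA, MgCl₂ and fatty-acid-free BSA, pH 7.4. Compounds were pre-screened at a single concentration, with full curves only if displacement exceeded 50%. Ki from iterative curve fitting, three independent experiments in triplicate.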

Chains of the proteins cited; added tags and fusions are not shown.
UniProt P21554, whole entry: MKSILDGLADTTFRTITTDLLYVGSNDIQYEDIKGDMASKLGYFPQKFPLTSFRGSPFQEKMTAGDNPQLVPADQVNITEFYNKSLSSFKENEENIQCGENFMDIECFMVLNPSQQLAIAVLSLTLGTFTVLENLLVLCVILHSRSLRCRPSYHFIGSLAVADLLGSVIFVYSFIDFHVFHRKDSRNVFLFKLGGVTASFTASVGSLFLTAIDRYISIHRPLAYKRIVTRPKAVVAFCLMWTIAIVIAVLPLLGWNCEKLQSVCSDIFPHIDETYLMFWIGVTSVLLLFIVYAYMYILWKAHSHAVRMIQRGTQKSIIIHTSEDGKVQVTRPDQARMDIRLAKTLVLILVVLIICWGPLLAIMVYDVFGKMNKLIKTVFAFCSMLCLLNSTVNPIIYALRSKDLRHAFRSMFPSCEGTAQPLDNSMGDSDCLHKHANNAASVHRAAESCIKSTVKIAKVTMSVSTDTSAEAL
UniProt P34972, whole entry: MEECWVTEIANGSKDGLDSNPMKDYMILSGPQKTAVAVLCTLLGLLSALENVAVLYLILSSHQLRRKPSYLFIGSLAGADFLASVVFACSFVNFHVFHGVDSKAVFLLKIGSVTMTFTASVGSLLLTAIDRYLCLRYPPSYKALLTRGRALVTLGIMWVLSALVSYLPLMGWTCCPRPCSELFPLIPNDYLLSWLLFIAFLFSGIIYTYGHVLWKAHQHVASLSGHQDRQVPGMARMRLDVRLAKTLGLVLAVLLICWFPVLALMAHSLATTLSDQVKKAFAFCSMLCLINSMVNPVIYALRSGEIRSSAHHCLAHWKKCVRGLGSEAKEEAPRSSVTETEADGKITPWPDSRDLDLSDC

We go through two compounds from ChEMBL document CHEMBL3611977, “Synthesis, pharmacological evaluation and docking studies of pyrrole structure-based CB2 receptor antagonists” (Eur J Med Chem, 2015).

The structures appear in SMILES notation.

`Cc1ccc(Cn2nc(C(=O)N[C@@H]3C(C)(C)[C@@H]4CC[C@@]3(C)C4)cc2-c2ccc(Cl)c(C)c2)cc1` had an inhibitory constant (Ki) in experiment [1] of 400 nM. That is a sub-micromolar value.

In experiment [2], `CCCCCCC(C)(C)c1cc(OC)c([C@@H]2C=C(CO)[C@@H]3C[C@H]2C3(C)C)c(OC)c1` [ONTERNABEZ] showed an inhibition constant (Ki) of 11.2 nM.
